The entries are a selection whose mix differs from that of the whole data set. Activity calls are given as the source filed them. Calls come from the whole dose curve; as a rule, active = well fitted inhibition curve with a large enough effect; inconclusive = small, poorly fitted or top-dose-only effect; inactive = no such curve, though single readings can be large or run the other way.
% is set by controls: 0 for no effect and ±100 for the full control effect.

The chains behind the UniProt entries cited, without tags or fusion partners.
UniProt Q14191, whole entry: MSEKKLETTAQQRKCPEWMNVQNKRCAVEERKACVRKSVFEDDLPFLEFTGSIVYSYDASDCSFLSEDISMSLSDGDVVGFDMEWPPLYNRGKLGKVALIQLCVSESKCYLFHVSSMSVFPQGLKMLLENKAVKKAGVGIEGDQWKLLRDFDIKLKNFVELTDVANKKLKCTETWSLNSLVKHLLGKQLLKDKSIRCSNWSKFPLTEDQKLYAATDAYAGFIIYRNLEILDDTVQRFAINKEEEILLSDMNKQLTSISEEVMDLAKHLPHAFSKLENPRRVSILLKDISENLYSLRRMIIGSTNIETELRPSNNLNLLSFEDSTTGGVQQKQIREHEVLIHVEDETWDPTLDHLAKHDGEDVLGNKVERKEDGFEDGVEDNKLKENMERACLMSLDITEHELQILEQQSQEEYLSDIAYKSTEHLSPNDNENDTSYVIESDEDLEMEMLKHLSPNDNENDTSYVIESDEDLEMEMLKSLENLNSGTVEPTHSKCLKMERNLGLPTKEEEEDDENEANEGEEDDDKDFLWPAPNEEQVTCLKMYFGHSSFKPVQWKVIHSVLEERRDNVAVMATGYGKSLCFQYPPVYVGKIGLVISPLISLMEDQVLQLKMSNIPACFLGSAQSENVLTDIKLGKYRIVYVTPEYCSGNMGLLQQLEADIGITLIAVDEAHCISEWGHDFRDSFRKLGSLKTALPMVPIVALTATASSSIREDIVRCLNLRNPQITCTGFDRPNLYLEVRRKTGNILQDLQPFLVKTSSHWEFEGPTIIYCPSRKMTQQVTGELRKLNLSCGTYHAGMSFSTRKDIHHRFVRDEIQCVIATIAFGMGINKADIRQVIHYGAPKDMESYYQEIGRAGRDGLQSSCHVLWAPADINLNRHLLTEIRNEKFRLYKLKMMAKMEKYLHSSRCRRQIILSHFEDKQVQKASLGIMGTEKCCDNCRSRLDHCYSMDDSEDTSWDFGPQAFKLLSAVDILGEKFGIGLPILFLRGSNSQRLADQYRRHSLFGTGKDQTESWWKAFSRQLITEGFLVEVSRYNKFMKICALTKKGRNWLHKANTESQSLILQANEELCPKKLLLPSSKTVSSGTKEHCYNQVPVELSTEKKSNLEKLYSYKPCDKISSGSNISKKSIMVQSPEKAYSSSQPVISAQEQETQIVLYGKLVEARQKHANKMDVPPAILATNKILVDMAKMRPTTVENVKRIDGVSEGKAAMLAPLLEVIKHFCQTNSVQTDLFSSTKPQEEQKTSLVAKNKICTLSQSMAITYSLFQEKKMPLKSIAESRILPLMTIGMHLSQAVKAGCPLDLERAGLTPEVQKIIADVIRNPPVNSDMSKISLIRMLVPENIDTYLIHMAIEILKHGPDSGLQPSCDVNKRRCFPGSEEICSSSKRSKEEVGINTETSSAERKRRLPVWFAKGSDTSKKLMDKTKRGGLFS

This assay deals with Bifunctional 3'-5' exonuclease/ATP-dependent helicase WRN (Homo sapiens) (UniProt Q14191). Kind of assay: qHTS for Inhibitors of WRN Helicase. Note: nearly all actives have a fitted effect of over 55% in size. The note with it: WRN helicase unwinding, fluorescent forked duplex, kinetic; at 114 µM (top of the series) unless noted. The source says:
Inhibition of DNA repair is proposed as a strategy for combating cancer. Synthetic lethality is an approach that exploits preexisting DNA repair deficiencies in certain tumors to develop inhibitors of DNA repair pathways that compensate for the tumor-associated DNA repair deficiency. Because helicases play critical roles in the DNA damage response and in DNA repair, particularly in actively dividing and replicating cells, characterization of synthetic lethal relationships of DNA helicases may be of value in developing improved anticancer treatment strategies; moreover, small molecules that specifically target a given DNA helicase may be useful for understanding its role in cellular nucleic acid metabolism. The goal of this project is to identify small molecule, non-covalent chemical inhibitors of the Werner syndrome (WS) helicase (WRN), which plays an important role in cell proliferation, the replication stress response, and DNA repair. […] The WRN gene product that is defective in the chromosomal instability disorder has DNA helicase and exonuclease activities and interacts with a number of nuclear proteins to maintain genomic stability. We will employ an optimized high-throughput screening assay that utilizes a fluorescence intensity modulation scheme with a fluorophore and quencher positioned near one another within a duplex deoxyoligonucleotide that contains a single forked structure. After a high-throughput screen of the ~350,000-member Molecular Libraries Small Molecule Repository (MLSMR) collection, followed by data analysis and hit selection, a panel of confirmatory, as well as secondary and ternary, assays will be employed to identify high-confidence WRN inhibitors. Structure-activity relationships will be investigated for the top candidate inhibitor series through medchem expansion. These are the results of the primary screening campaign against the MLSMR. NIH Chemical Genomics Center [NCGC] NIH Molecular Libraries Probe Centers Network [MLPCN] MLPCN Grant: MH096530 Assay Submitter (PI): Robert Brosh, National Institute of Aging
Three muL of reagents (buffer in columns 3 and 4 as negative controls; WRN at 20 nM final concentration in columns 1 and 2 as positive controls; columns 5-48 as test reactions) will be dispensed into a 1536-well Greiner black plate via solenoid-valve based nanoliter dispensers. Compounds (23 nL each in columns 5-48) and control (23 nL each in column 2 as dose-response) will be transferred via a Kalypsys pintool equipped with a 1536-pin array. Plates will be incubated for 15 min at room temperature, and then 1 µL of substrate (100 nM forked duplex oligonucleotide and 2 mM ATP final concentrations) will be added to start reaction, and plate will be transferred into a ViewLux high-throughput CCD imager where reaction progress is measured in kinetic mode using standard red-fluorescence optics (excitation filter 525 nm, emission filter 598 nm).
For `O=C(OCCN1CCN(CCOCc2ccccc2)CC1)C(O)(c1ccccc1)c1ccccc1`, the activity change, negative = inhibition is inactive: -11.2%.

In the case of `CP(=O)(Nc1ccccc1F)Oc1ccccc1` (stereo unspecified), the activity change, negative = inhibition is inactive: -16%.

As for `CC(C)c1ccc(OP(C)(=O)Nc2ccc(SC(F)(F)F)cc2)cc1` (stereo unspecified), the activity change, negative = inhibition is inactive: -9.59%.

In the case of `Cc1c([N+](=O)[O-])cc([N+](=O)[O-])c(Br)c1[N+](=O)[O-]`, the activity change, negative = inhibition was inactive: -35.4%.

Regarding `CCN(CC)CCCOC(=O)C(O)(c1ccccc1)C1CCCCC1` (stereo unspecified), the activity change, negative = inhibition is inactive: 1.27%.

Regarding `CP(=O)(Nc1ccccc1)Oc1ccc(F)cc1` (stereo unspecified), the activity change, negative = inhibition was inactive: -9.29%.

Consider `CCCCCOc1ccc(NP(C)(=O)Oc2ccc(Cl)cc2Cl)cc1` (stereo unspecified), for which the activity change, negative = inhibition is inactive: -17.5%.

In the case of `CCOC(=O)c1ccc(NP(C)(=O)Oc2ccc(F)cc2)cc1` (stereo unspecified), the activity change, negative = inhibition was inactive: -7.48% [at 57.1 µM].

For `COc1ccc(OP(C)(=O)Nc2ccc(SC(F)(F)F)cc2)cc1` (stereo unspecified), the activity change, negative = inhibition is inactive: -9.74%.

Regarding `O=[N+]([O-])c1ccc(OP2(=O)COCCO2)cc1` (stereo unspecified), the activity change, negative = inhibition is inactive: 13.7%.

In the case of `Cc1cc(-c2cccc3ccccc23)c(C)cn1.O=[N+]([O-])c1cc([N+](=O)[O-])c(O)c([N+](=O)[O-])c1`, the activity change, negative = inhibition was inactive: -7.46%.

For `Cc1c(C(c2ccc3c(c2)OCO3)c2c(C)n(C)n(-c3ccccc3)c2=O)c(=O)n(-c2ccccc2)n1C.O=[N+]([O-])c1cc([N+](=O)[O-])c(O)c([N+](=O)[O-])c1`, the activity change, negative = inhibition was inactive: -7.9%.

Consider `COc1ccc(OP(C)(=O)Nc2cccc(Br)c2)cc1` (stereo unspecified), for which the activity change, negative = inhibition is inactive: 5.05%.

For the molecule `CN(C)CCOC(=O)C(O)(c1ccccc1)C1CCCCC1` (stereo unspecified), the activity change, negative = inhibition is inactive: -3.49%.

In the case of `CP(=O)(Nc1ccc2c(c1)OCCO2)Oc1ccccc1` (stereo unspecified), the activity change, negative = inhibition was inactive: -3.92%.

In the case of `Cc1ccccc1NP(C)(=O)Nc1ccccc1C`, the activity change, negative = inhibition was inactive: -1.43%.

As to `O=[N+]([O-])c1cc([N+](=O)[O-])c(C(F)(F)F)c([N+](=O)[O-])c1O`, the activity change, negative = inhibition was inactive: 1.51%.

Take `CP(=O)(Nc1ccc(SC(F)(F)F)cc1)Oc1ccc(F)cc1` (stereo unspecified): the activity change, negative = inhibition was inactive: 1.79%.

With `CCOP(C)(=S)SCC(=O)NC(C)(CC)C(=O)O` (stereo unspecified), the activity change, negative = inhibition was inactive: -10.8%.

Consider `COc1ccccc1OP(C)(=O)Nc1ccccc1Br` (stereo unspecified), for which the activity change, negative = inhibition was inactive: -1.42%.

As to `CC(C)(C)c1ccc(OP(C)(=O)O)cc1`, the activity change, negative = inhibition is inactive: 6.23%.

Regarding `CP(=O)(Nc1ccc(Cl)cc1)Oc1ccc(F)cc1` (stereo unspecified), the activity change, negative = inhibition is inactive: -16.1%.

Turning to `CN(C)C(=O)c1c([N+](=O)[O-])cc([N+](=O)[O-])cc1[N+](=O)[O-]`, the activity change, negative = inhibition is inactive: 1.83%.

Consider `CCN(CC)CC(O)COC(=O)C(O)(c1ccccc1)C1CCCCC1` (stereo unspecified), for which the activity change, negative = inhibition was inactive: -1.87%.

In the case of `COc1ccc(OP(C)(=O)Nc2ccc(Br)cc2)cc1` (stereo unspecified), the activity change, negative = inhibition is inactive: 1.18%.

`COc1ccccc1OP(C)(=O)Nc1c(C)n(C)n(-c2ccccc2)c1=O` (stereo unspecified): the activity change, negative = inhibition was inactive: 8.55%.

Turning to `CP(=O)(Oc1ccccc1)N1CCOC1=O` (stereo unspecified), the activity change, negative = inhibition is inactive: 9.02%.

Take `CCc1ccc(OP(C)(=O)Nc2cccnc2)cc1` (stereo unspecified): the activity change, negative = inhibition was inactive: 3.27%.

In the case of `Nc1ccc2c(ccc3cccnc32)n1.O=[N+]([O-])c1cc([N+](=O)[O-])c(O)c([N+](=O)[O-])c1`, the activity change, negative = inhibition is inactive: 3.85%.

For the molecule `CCOC(=O)c1ccc(NP(C)(=O)Oc2ccc(Cl)cc2)cc1` (stereo unspecified), the activity change, negative = inhibition is inactive: 8.64%.

As to `CP(=O)(OC12CC3CC(CC(C3)C1)C2)OC12CC3CC(CC(C3)C1)C2`, the activity change, negative = inhibition is inactive: 9.58%.

In the case of `CCCCCCCCCCCCCCCC1C[N+](C)(C)CCOP(C)(=O)O1` (stereo unspecified), the activity change, negative = inhibition is inactive: -2.28%.

As for `CP(=O)(Nc1ccc(Cl)cc1Cl)Oc1ccccc1` (stereo unspecified), the activity change, negative = inhibition was inactive: -6.37%.

`CP(=O)(OCCOc1ccccc1)OCCOc1ccccc1`: the activity change, negative = inhibition was inactive: 0.928%.

In the case of `Cc1cc(C)cc(OP(C)(=O)Nc2cccc(C(F)(F)F)c2)c1` (stereo unspecified), the activity change, negative = inhibition is inactive: -6.59%.

With `COc1ccccc1OP(C)(=O)Nc1ccc(C)c(C)c1` (stereo unspecified), the activity change, negative = inhibition is inactive: -0.54%.

As for `COc1ccc(OP(C)(=O)Nc2ccccc2Br)cc1` (stereo unspecified), the activity change, negative = inhibition is inactive: 4.73%.

As to `Cc1c(NP(C)(=O)Oc2ccc(C(C)C)cc2)c(=O)n(-c2ccccc2)n1C` (stereo unspecified), the activity change, negative = inhibition was inactive: 5.36%.

As to `O=[N+]([O-])c1cc([N+](=O)[O-])c(Nc2ccccn2)c([N+](=O)[O-])c1`, the activity change, negative = inhibition was inactive: -25.9%.

Consider `CP(=O)(Nc1ccccn1)Oc1ccccc1` (stereo unspecified), for which the activity change, negative = inhibition is inactive: 1.5%.

For `COc1ccccc1OP(C)(=O)Nc1ccc(C)cc1C` (stereo unspecified), the activity change, negative = inhibition was inactive: 6.11%.

In the case of `CCc1ccc(OP(C)(=O)O)cc1`, the activity change, negative = inhibition is inactive: 9.06%.

Consider `COc1ccccc1OP(C)(=O)Nc1ccc(Br)cc1` (stereo unspecified), for which the activity change, negative = inhibition is inactive: 3.22%.

As for `COc1ccc(OP(C)(=O)Nc2ccccn2)cc1` (stereo unspecified), the activity change, negative = inhibition was inactive: -17% [at 57.1 µM].

Turning to `CN(C)CCOC(=O)C(O)(c1ccccc1)C1CCCC1` (stereo unspecified), the activity change, negative = inhibition is inactive: -1.44% [at 57.1 µM].

Regarding `COc1ccccc1-c1ccccn1.O=[N+]([O-])c1cc([N+](=O)[O-])c(O)c([N+](=O)[O-])c1`, the activity change, negative = inhibition is inactive: 0.12%.

For `CCN(CC)CCCOC(=O)C(O)(c1ccccc1)c1ccccc1`, the activity change, negative = inhibition is inactive: -0.0344%.

In the case of `COc1ccccc1OP(C)(=O)Nc1ccc(C)cc1` (stereo unspecified), the activity change, negative = inhibition is inactive: -6.35%.

On to `Cc1ccc(NP(C)(=O)Oc2ccccc2)c(C)c1` (stereo unspecified), for which the activity change, negative = inhibition is inactive: -4.4%.

Take `CCOC(=O)c1ccc(NP(C)(=O)Oc2ccccc2)cc1` (stereo unspecified): the activity change, negative = inhibition was inactive: -1.06%.

Consider `Cc1cc(C)cc(OP(C)(N)=O)c1` (stereo unspecified), for which the activity change, negative = inhibition was inactive: -4.69%.

As for `COc1ccccc1OP(C)(=O)Nc1cc(Cl)ccc1C` (stereo unspecified), the activity change, negative = inhibition is inactive: 1.05%.

Regarding `COc1ccc(OP(C)(=O)Nc2cccc(F)c2)cc1` (stereo unspecified), the activity change, negative = inhibition was inactive: 8.1%.

For the molecule `O=[N+]([O-])c1cc([N+](=O)[O-])c(Nc2cccnc2)c([N+](=O)[O-])c1`, the activity change, negative = inhibition is inactive: -1.07%.

On to `O=[N+]([O-])c1ccc2c(c1)C=Nc1ccccc1O2`, for which the activity change, negative = inhibition was inactive: -17.5%.

Turning to `CC(C)(C)c1ccc(OP(C)(=O)Nc2ccc(SC(F)(F)F)cc2)cc1` (stereo unspecified), the activity change, negative = inhibition was inactive: -4.2%.

As to `Cc1cccc(C)c1OP(C)(N)=O` (stereo unspecified), the activity change, negative = inhibition is inactive: 5.19%.

Consider `CP(=S)(Nn1cnnc1)Oc1ccccc1` (stereo unspecified), for which the activity change, negative = inhibition is inactive: 1.35%.

Take `CP(=O)(Nc1ccccc1Br)Oc1ccccc1` (stereo unspecified): the activity change, negative = inhibition was inactive: -1.2%.

Take `COc1ccccc1OP(C)(=O)Nc1ccccc1` (stereo unspecified): the activity change, negative = inhibition was inactive: -5.76%.

For `O=[N+]([O-])c1cc([N+](=O)[O-])c(O)c([N+](=O)[O-])c1.c1ccc(Oc2ccncc2)cc1`, the activity change, negative = inhibition is inactive: -11.8%.

The values are drawn from PubChem BioAssay AID651768 (National Center for Advancing Translational Sciences (NCATS), 2012).
